# Curated experimental data: melting point values

Data: OPERA 2.9 data sets, kmansouri/OPERA on GitHub.

Melting points are in °C.
"–" marks a cell with nothing listed here.

compound,name,mp (°C)
O=C(O)c1ccc(Sc2ccccc2)c([N+](=O)[O-])c1,3-nitro-4-(phenylthio)benzoic acid,229
O=C(Cc1ccc(-c2ccccc2)cc1)OCC1CCCCC1,–,71.22
CC(=O)c1ccc(OCC(=O)Nc2ccccc2)cc1,"Acetamide, 2-(4-acetylphenoxy)-N-phenyl-",95
COC1(OC)CCCCCCCCCCC1,"1,1-Dimethoxycyclododecane",6.9
O=Cc1ccc(-c2cccnc2)o1,5-(Pyridin-3-yl)furan-2-carbaldehyde,105
OCC(O)COC1CCCCC1 (centres undefined),Cyclohexylglycerin,-69
COC(=O)c1ccnnc1,Methyl pyridazine-4-carboxylate,65.5
NS(=O)(=O)c1ccc2c(c1)CC(=O)N2,2-oxoindoline-5-sulfonamide,253
Nc1ccc(/N=N/c2c(N)ccc3cc(S(=O)(=O)[O-])cc(O)c23)c(S(=O)(=O)[O-])c1.[Na+].[Na+],–,242
CC(=O)Nc1ccc2nc(N)sc2c1,N-(2-Amino-benzothiazol-6-yl)-acetamide,218
O=C(OC[C@@H]1CO[C@](CBr)(c2ccc(Cl)cc2Cl)O1)c1ccccc1,–,116.8
CCCC1CCC(C2CCC(c3ccc(OCC)c(F)c3F)CC2)CC1 (centres undefined),–,80.2
N#CCC(=O)c1cc2ccccc2o1,"Benzofuran, 2-cyanoacetyl-",147
O=C(/C=C/c1ccc2c(c1)OCO2)N(c1ccccc1)c1ccccc1,"(2E)-3-(1,3-Benzodioxol-5-yl)-N,N-diphenylacrylamide",146.4
CCC(=O)OCCc1ccccc1,2-Phenylethyl propionate,8.51
O=C(O)CCn1cnc2ccccc21,3-(1H-Benzimidazol-1-yl)propanoic acid,107
CC(=O)c1ccc(OCC(=O)N2CCCC2)cc1,"Acetophenone, 4'-pyrrolidinylcarbonylmethoxy-",123
COCCNC(=O)CC#N,2-cyano-N-(2-methoxyethyl)acetamide,79
CC(C)(C)N(NC(=O)c1ccccc1)C(=O)c1ccccc1[N+](=O)[O-],N'-Benzoyl-N-tert-butyl-2-nitrobenzohydrazide,182
CCCC(=O)OCC=Cc1ccccc1,Cinnamyl butyrate,-3.16
COC(=O)[C@]1(NC(=O)Cc2cc(C)ccc2C)CC[C@@H](OC)CC1,–,99.8
Cc1ccc(NC(=O)C2CCCNC2)nc1 (centres undefined),N-(5-Methylpyridin-2-yl)piperidine-3-carboxamide,145
Nc1nc(-c2cccc([N+](=O)[O-])c2)cs1,"4-(3-Nitrophenyl)-1,3-thiazol-2-amine",187
CC(=O)c1ccc(NS(=O)(=O)c2ccc(C)cc2)cc1,N-(4-Acetylphenyl)-4-methylbenzenesulfonamide,171
Cl.c1ccc2c(CC3=NCCN3)cccc2c1,Naphazoline hydrochloride,257.8
Cn1nc(CC(=O)O)c2ccccc2c1=O,"(3-Methyl-4-oxo-3,4-dihydrophthalazin-1-yl)acetic acid",190
CC(C)=CCCC(C)CCOC(=O)C(C)C (centres undefined),Citronellyl isobutyrate,-14.3
COC(=O)c1cc(C)n(C)c1C,"methyl 1,2,5-trimethyl-1H-pyrrole-3-carboxylate",116.5
O=C(O)Cn1cnc2ccccc2c1=O,(4-Oxo-4H-quinazolin-3-yl)-acetic acid,242
Nc1c(Cl)nc(-c2ccccc2)nc1Cl,"4,6-dichloro-2-phenylpyrimidin-5-amine",141
O=C(CBr)c1ccc(S(=O)(=O)N2CCOCC2)cc1,2-Bromo-1-[4-(morpholine-4-sulfonyl)phenyl]ethan-1-one,149
COc1ccc(C#N)c(F)c1F,"2,3-Difluoro-4-methoxybenzonitrile",83.5
Cc1c(C)c2c(c(C)c1OC(=O)c1cccnc1)CCC(C)(CCCC(C)CCCC(C)CCCC(C)C)O2 (centres undefined),–,45
O=S(=O)(Nc1ccc(O)cc1)c1ccccc1,"Benzenesulfonamide, N-(4-hydroxyphenyl)-",154
O=C(O)Cn1c(=O)oc2ccccc21,"(2-oxo-1,3-benzoxazol-3(2H)-yl)acetic acid",179
O=c1[nH]c(CCl)nc2sc3c(c12)CCCC3,–,266

Excerpt, the opening 5 entries:

| compound | name | mp (°C) |
|---|---|---|
| O=C(O)c1ccc(Sc2ccccc2)c([N+](=O)[O-])c1 | 3-nitro-4-(phenylthio)benzoic acid | 229 |
| O=C(Cc1ccc(-c2ccccc2)cc1)OCC1CCCCC1 | – | 71.22 |
| CC(=O)c1ccc(OCC(=O)Nc2ccccc2)cc1 | Acetamide, 2-(4-acetylphenoxy)-N-phenyl- | 95 |
| COC1(OC)CCCCCCCCCCC1 | 1,1-Dimethoxycyclododecane | 6.9 |
| O=Cc1ccc(-c2cccnc2)o1 | 5-(Pyridin-3-yl)furan-2-carbaldehyde | 105 |

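The numbers are reported measurements, compiled and curated for the OPERA QSAR suite. A listed value is a point estimate from one report or more. Method, purity and exact conditions of the single measurements are not given. A value may pool stereoisomers or salt forms, and the file does not say which form was measured. Some entries may be limits or estimates that an upstream database listed as plain numbers.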